Experimental data published in patent publication US5026858A, “Piperidine derivative” (Walton S.A., priority 1976, dated 1991).

Amino acid sequences for entries named in this document (tags omitted).
UniProt P61169, whole entry: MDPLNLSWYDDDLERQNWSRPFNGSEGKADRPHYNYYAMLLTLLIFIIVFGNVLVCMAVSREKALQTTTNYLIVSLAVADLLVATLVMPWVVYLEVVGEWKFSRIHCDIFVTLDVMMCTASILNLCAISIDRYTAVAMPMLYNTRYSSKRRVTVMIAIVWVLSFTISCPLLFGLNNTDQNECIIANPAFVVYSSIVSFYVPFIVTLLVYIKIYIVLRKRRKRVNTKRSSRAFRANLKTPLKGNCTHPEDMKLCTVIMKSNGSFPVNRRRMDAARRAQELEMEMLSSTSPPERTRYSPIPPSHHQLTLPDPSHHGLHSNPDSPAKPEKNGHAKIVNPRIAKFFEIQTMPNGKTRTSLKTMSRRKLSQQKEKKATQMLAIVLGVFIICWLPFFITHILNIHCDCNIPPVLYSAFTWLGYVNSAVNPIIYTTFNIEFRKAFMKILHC

What was measured:
[1] = biological target: T1, [3H]haloperidol binding, rat striatal membranes (Rattus norvegicus, UniProt P61169); experiment: displacement of [3H]haloperidol from rat striatal membranes; conditions: Table 1, read-out: Displacement [3H]Haloperidol striatum: approximate KI
T1 construct: striatal and limbic forebrain membranes; from tissue; host or cells: rat striatal membranes
Description: (§1) ^(f) Approximate KI (nM) for displacement of [3Hhaloperidol from rat
(§2) striatal and limbic forebrain membranes.

[2] = biological target: T2, [3H]haloperidol binding, rat limbic forebrain membranes (Rattus norvegicus, UniProt P61169); experiment: displacement of [3H]haloperidol from rat limbic forebrain membranes; conditions: Table 1, read-out: Displacement [3H]Haloperidol limbic: approximate KI
T2 construct: striatal and limbic forebrain membranes; from tissue; host or cells: rat limbic forebrain membranes
Description: as §1, §2

CCN(CC)CCNC(=O)c1cc(Cl)c(N)cc1OC [Metoclopramide, reference compound]
Ki [1]: 150 nM
Ki [2]: 150 nM
